This test concerns A431 (squamous skin) carcinoma cell line. As to the kind of experiment: MTT anti-proliferative assay, A431. It is filed as cell-based. The note with it: Homo sapiens, A-431, 72 h incubation, 50% inhibition of cell growth, read-out: IC50, μM ± SD, A431.

`O=c1[nH]cc(F)c(=O)[nH]1` [Compound 5-FU, 5-fluorouracil, reference compound]: the IC50 was 23.4 ± 2.09 µM.
